US20130084328A1, “METHYLATED CODING AND NON-CODING RNA GENES AS DIAGNOSTIC AND THERAPEUTIC TOOLS FOR HUMAN MELANOMA” (Sanford-Burnham Medical Research Institute, priority 2011, published 2013)

System: WM1552C melanoma cells
Experiment: RNA deep sequencing (SOLiD) of WM1552C/34b versus WM1552C/VO cells
Assay type: cell-based, human
Conditions: Bioscope; WM1552C/34b vs WM1552C/VO
From the text: Oligonucleotides complimentary to the hsa-miR-34b genomic sequences were constructed (miR-34b pre For-GTGCTCGGTT TGTAGGCAGT G [SEQ ID NO:25] and miR-34b pre Rev-GTGCCTTGTT TTGATGGCAG TG [SEQ ID NO:26]), containing HindIII and BamHI sites on their respective 5′ and 3′ ends, then amplified from melanocyte genomic DNA (Amplitaq Gold, Applied Biosystems/Life Technologies). The product was then TOPO cloned into pCR4-TOPO (Invitrogen/Life Technologies). The vector construct was sequenced and the pre-hsa-miR-34b fragment was sub-cloned into pcDNA4/H1-3TetR using the HindIII and BamHI sites to create pcDNA4/H1-3TetR/miR-34b. […] The following morning, cells were selected with 600 μg/mL Zeocin for the following 15 days.
Total RNA was isolated from samples using Trizol (Invitrogen/Life Technologies) and fragmented through RNase III digestion. SOLiD sequence protocols (Applied Biosytems/Life Technologies) require reverse transcription of these RNAs, priming with a ligated primer, and the resulting cDNA amplified and size-selected in a 6% urea gel with the help of SYBR Gold dye for sequencing. The sequence libraries (150-200 bp size fragments) were further amplified using a bead-based emulsion PCR optimized to physically isolate a single bead/cDNA molecule. This enables massively parallel amplification of monoclonal DNA species. For RNA-seq experiments, we deposited approximately 90 million beads per sample onto a glass slide and analyzed them using a ligation-based sequencing technology. Data were mapped to the human genome using both BioScope and BFAST software packages and analyzed at the Burnham Institute Bioinformatics core facility.
Mapping of the SOLiD sequence data was performed using the standard pipeline of Blat-like Fast Accurate Search Tool (BFAST) (Horner et al., 2009) against the human genome (hg19) (Rhead et al., 2010). […] It then hashes the reads to a number of genomic locations based on the indices and performs detailed alignments between the reads and the genomic sequence at the hashed locations. The final output of BFAST contains the mapped genomic locations of each read and the qualities (represented via alignment scores) of the mappings.
The expression level of a gene can be calculated based on the mapping results. The BFAST algorithm successfully mapped ˜63% of the reads to the reference genome; among the mapped reads, ˜89% were uniquely mapped. Only uniquely mapped reads were considered to eliminate possible noise. For each gene (from the RefSeq annotation for hg19), a score was calculated as reads per kilobase of sequence per million reads (RPKM) (Mortazavi et al., 2008).
The predefined mapping protocol for SOLiD sequencing on BioScope 1.0 was also used. BioScope was able to map ˜63% of the reads to the reference genome, ˜83% uniquely. The output was then fed into the Partek Genomics Suite for analysis. Again, an RPKM score was computed for each gene.
The results of the two analysis pipelines were compared to arrive at a consensus. […] For this calculation, a pseudo-count of 1.0 was used to overcome divide by zero errors and to normalize the data at low RPKM values. […] The order of the genes was then directed by the corroborated fold change. For the open reading frames, a cutoff was established with a minimum fold change of +/−1.5 (1.5 for miRNAs, −1.2 for target genes). The transcript delta was also obtained; this was used to select genes for further testing, this cutoff was set at 10.0 for open reading frames (1.3 for miRNAs, −2.0 for target genes). Of particular interest are the target genes of miR-34b.

miR-34b: nucleic acid exemplified by SEQ ID NO:2 (CAAUCACUAACUCCACUGCCAU); stably expressed in WM1552C from pcDNA4/H1-3TetR/miR-34b (WM1552C/34b) (CAAUCACUAACUCCACUGCCAU)
ACAN Fold Change: 2.19
ACAN Transcript Difference: 16.51
ALCAM Fold Change: −2.33
ALCAM Transcript Difference: 12.29
AP2M1 Fold Change: −1.82
AP2M1 Transcript Difference: 15.15
CADM4 Fold Change: 1.79
CADM4 Transcript Difference: 12.86
CAVI Fold Change: −1.55
CAVI Transcript Difference: 18.48
COL6A1 Fold Change: −1.60
COL6A1 Transcript Difference: 11.91
COL9A3 Fold Change: 1.84
COL9A3 Transcript Difference: 21.05
CRIMI Fold Change: −1.66
CRIMI Transcript Difference: 13.32
CXCL1 Fold Change: −1.57
CXCL1 Transcript Difference: 164.16
CYR61 Fold Change: −1.63
CYR61 Transcript Difference: 31.05
DKK1 Fold Change: −9.27
DKK1 Transcript Difference: 18.26
FASN Fold Change: 1.73
FASN Transcript Difference: 18.85
FBNI Fold Change: −2.55
FBNI Transcript Difference: 25.18
FCRLA Fold Change: 2.85
FCRLA Transcript Difference: 17.76
FSTL1 Fold Change: −1.74
FSTL1 Transcript Difference: 25.38
HLA-DRA Fold Change: 1.73
HLA-DRA Transcript Difference: 23.99
HLA-DRBI Fold Change: 2.18
HLA-DRBI Transcript Difference: 22.90
ID3 Fold Change: −2.71
ID3 Transcript Difference: 19.97
IGFBP2 Fold Change: 1.80
IGFBP2 Transcript Difference: 60.38
IGFBP7 Fold Change: −2.09
IGFBP7 Transcript Difference: 50.32
IL1B Fold Change: −7.58
IL1B Transcript Difference: 221.43
IL6 Fold Change: −1.72
IL6 Transcript Difference: 15.64
INHBA Fold Change: −9.48
INHBA Transcript Difference: 12.28
ITGA3 Fold Change: −3.63
ITGA3 Transcript Difference: 18.17
ITGB5 Fold Change: −1.71
ITGB5 Transcript Difference: 13.47
KLF9 Fold Change: 1.61
KLF9 Transcript Difference: 14.83
LOXL2 Fold Change: −1.75
LOXL2 Transcript Difference: 60.13
LYPD1 Fold Change: −3.86
LYPD1 Transcript Difference: 14.43
MARCKSLI Fold Change: 1.68
MARCKSLI Transcript Difference: 12.59
MIA Fold Change: 1.90
MIA Transcript Difference: 37.10
MIR20B Fold Change: 2.78
MIR20B Transcript Difference: 6.06
MIR34B Fold Change: 3.26
MIR34B Transcript Difference: 11.50
MIR134 Fold Change: 3.02
MIR134 Transcript Difference: 6.50
MIR140 Fold Change: 3.65
MIR140 Transcript Difference: 21.18
MIR149 Fold Change: 2.59
MIR149 Transcript Difference: 4.50
MIR154 Fold Change: 3.14
MIR154 Transcript Difference: 6.63
MIR181D Fold Change: 1.51
MIR181D Transcript Difference: 1.32
MIR199B Fold Change: 2.68
MIR199B Transcript Difference: 5.06
MIR301A Fold Change: 2.17
MIR301A Transcript Difference: 3.86
MIR323 Fold Change: 1.57
MIR323 Transcript Difference: 1.76
MIR362 Fold Change: 1.70
MIR362 Transcript Difference: 2.09
MIR376A2 Fold Change: 1.82
MIR376A2 Transcript Difference: 2.78
MIR380 Fold Change: 1.54
MIR380 Transcript Difference: 1.65
MIR382 Fold Change: 1.72
MIR382 Transcript Difference: 2.70
MIR409 Fold Change: 3.50
MIR409 Transcript Difference: 12.15
MIR410 Fold Change: 2.30
MIR410 Transcript Difference: 3.86
MIR425 Fold Change: 1.62
MIR425 Transcript Difference: 1.82
MIR431 Fold Change: 1.90
MIR431 Transcript Difference: 3.63
MIR432 Fold Change: 2.38
MIR432 Transcript Difference: 4.17
MIR453 Fold Change: 2.44
MIR453 Transcript Difference: 4.29
MIR487A Fold Change: 1.83
MIR487A Transcript Difference: 2.96
MIR494 Fold Change: 2.72
MIR494 Transcript Difference: 5.38
MIR495 Fold Change: 2.35
MIR495 Transcript Difference: 4.14
MIR496 Fold Change: 1.90
MIR496 Transcript Difference: 3.37
MIR501 Fold Change: 1.52
MIR501 Transcript Difference: 1.44
MIR518A2 Fold Change: 1.74
MIR518A2 Transcript Difference: 2.74
MIR656 Fold Change: 1.64
MIR656 Transcript Difference: 2.08
MIR660 Fold Change: 2.65
MIR660 Transcript Difference: 4.70
MIR663B Fold Change: 4.48
MIR663B Transcript Difference: 35.55
MIR663 Fold Change: 12.50
MIR663 Transcript Difference: 70.74
MIR1197 Fold Change: 1.83
MIR1197 Transcript Difference: 2.86
MIR1205 Fold Change: 1.51
MIR1205 Transcript Difference: 1.32
MIR1312 Fold Change: 3.16
MIR1312 Transcript Difference: 9.85
MMP14 Fold Change: −1.54
MMP14 Transcript Difference: 14.10
MMPS Fold Change: 2.80
MMPS Transcript Difference: 12.14
NT5E Fold Change: 1.55
NT5E Transcript Difference: 18.87
PDE1C Fold Change: −1.66
PDE1C Transcript Difference: 16.34
PTTGHP Fold Change: −1.73
PTTGHP Transcript Difference: 19.63
RCANI Fold Change: 2.38
RCANI Transcript Difference: 44.75
RPL24 Fold Change: 1.52
RPL24 Transcript Difference: 16.61
RPL37A Fold Change: 1.70
RPL37A Transcript Difference: 41.46
S100A16 Fold Change: −2.86
S100A16 Transcript Difference: 27.00
S100B Fold Change: 2.45
S100B Transcript Difference: 70.71
SEMA3C Fold Change: −1.61
SEMA3C Transcript Difference: 14.88
SERPINA3 Fold Change: 2.37
SERPINA3 Transcript Difference: 13.31
SERPINB2 Fold Change: −3.68
SERPINB2 Transcript Difference: 14.12
SRGN Fold Change: −5.87
SRGN Transcript Difference: 17.37
STC1 Fold Change: −22.72
STC1 Transcript Difference: 11.88
STC2 Fold Change: −4.44
STC2 Transcript Difference: 12.45
TGFBI Fold Change: −1.58
TGFBI Transcript Difference: 23.76
THBS2 Fold Change: 1.55
THBS2 Transcript Difference: 123.34
TNFRSF21 Fold Change: −4.00
TNFRSF21 Transcript Difference: 25.16
TNS3 Fold Change: −1.56
TNS3 Transcript Difference: 37.76
TXNIP Fold Change: −2.33
TXNIP Transcript Difference: 30.21
UGCG Fold Change: −1.76
UGCG Transcript Difference: 19.21
WNT5A Fold Change: −2.16
WNT5A Transcript Difference: 18.11
